Read-outs that look alike come from different tables or passages of the source.

Chains of the proteins cited; added tags and fusions are not shown. Lines headed by an entry give the natural chain unless they say otherwise; changes in a name come on top.
UniProt P41144: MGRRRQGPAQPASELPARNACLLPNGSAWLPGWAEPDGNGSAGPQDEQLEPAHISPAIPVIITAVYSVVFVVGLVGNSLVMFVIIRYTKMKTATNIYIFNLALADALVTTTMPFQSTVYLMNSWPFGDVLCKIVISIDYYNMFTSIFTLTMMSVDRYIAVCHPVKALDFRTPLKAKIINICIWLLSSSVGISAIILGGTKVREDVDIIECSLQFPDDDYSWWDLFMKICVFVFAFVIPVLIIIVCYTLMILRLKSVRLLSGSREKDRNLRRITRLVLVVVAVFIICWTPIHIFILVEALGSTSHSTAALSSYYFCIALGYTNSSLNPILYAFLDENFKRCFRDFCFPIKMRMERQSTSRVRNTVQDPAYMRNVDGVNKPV
UniProt P41145: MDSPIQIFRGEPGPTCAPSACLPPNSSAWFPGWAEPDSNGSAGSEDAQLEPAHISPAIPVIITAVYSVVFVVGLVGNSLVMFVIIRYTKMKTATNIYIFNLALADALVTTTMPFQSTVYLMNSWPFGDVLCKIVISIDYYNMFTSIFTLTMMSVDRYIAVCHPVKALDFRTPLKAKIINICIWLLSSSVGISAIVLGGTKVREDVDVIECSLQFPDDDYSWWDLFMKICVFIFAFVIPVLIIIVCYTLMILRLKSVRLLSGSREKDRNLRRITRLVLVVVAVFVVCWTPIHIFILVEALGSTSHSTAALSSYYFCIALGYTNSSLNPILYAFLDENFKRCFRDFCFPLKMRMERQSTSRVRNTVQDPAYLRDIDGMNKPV

In test [1] the target is T1, κ receptor (Cavia porcellus, UniProt P41144).
T1 construct: Membrane homogenates prepared from guinea pig brains were used as receptor material; from tissue; host or cells: guinea pig brain membrane homogenates
The test is described as follows: biochemical. The test is classed as binding, guinea pig.

Test [2] deals with Human opiate κ receptors (Homo sapiens, UniProt P41145). The test is described as follows: κ opioid receptor functional assay, [35S]GTPγS binding (assay C). The test is classed as biochemical.

One may read the Ki as the dissociation constant of the complex between target and ligand, obtained from inhibition or displacement. In the case of `COC(=O)N1CCN(C(=O)Cc2ccc(Cl)c(Cl)c2)[C@H]2[C@H](N3CCCC3)CCC[C@@H]21` (racemic) [Reference compound B, reference compound], the affinity in test [1] corresponds to a Ki of 23.6 ± 6.4 nM.

What is called EC50 is the midpoint of the concentration-response curve. As to `COC(=O)N1CCN(C(=O)Cc2ccc(Cl)c(Cl)c2)[C@@H]2[C@H]1CCC[C@@H]2N1CCCC1` (racemic) [Reference compound E, reference compound], the concentration giving a half-maximal response (EC50) in test [2] (read-out: GTPγS EC50) amounted to 351 nM.

As to `COC(=O)N1CCN(C(=O)Cc2ccc(Cl)c(Cl)c2)[C@H]2[C@@H](N3CCCC3)CCC[C@@H]21` (single isomer, unassigned) [Reference compound F], in test [1] (read-out: Ki (nM) ± SEM), the Ki was determined as 115 ± 38 nM.

As to `COC(=O)N1CCN(C(=O)Cc2ccc(Cl)c(Cl)c2)[C@@H]2[C@@H](N3CCCC3)CCC[C@@H]21` [Example 89, (4aR,5S,8aS)-methyl 4-(2-(3,4-dichlorophenyl)acetyl)-5-(pyrrolidin-1-yl)octahydroquinoxaline-1(2H)-carboxylate], the figures for the EC50 in test [2] (GTPγS EC50 (nM)) and in test [2] (read-out: GTPγS EC50) were 10 to 100 nM and 1.99 nM, respectively.

The record behind these values is patent publication US20160122307A1, “PERHYDROQUINOXALINE DERIVATIVES” (DR. AUGUST WOLFF GMBH & CO. KG ARZNEIMITTEL, priority 2013, published 2016).
